# Literature values, collected in patent US5077035A, “Radioiodinated benzovesamicol analogs for cholinergic nerve mapping” (priority 1990, dated 1991).
# Settings: single passage through the cerebral circulation; cited from earlier work
substance,measurement,value
technetium-99m hexamethylpropylenamine oxime,Blood-brain barrier passage and blood clearance (in words),crosses the blood-brain barrier and is completely cleared from the blood in a single passage through the cerebral circulation
